The record followed here is patent publication US6525059B1, “Substituted pyrazoles as p38 kinase inhibitors” (G. D. Searle & Company, priority 1998, dated 2003).

Protein sequences, listed by entry. Tags and fused reporters are not part of them.
UniProt Q16539, whole entry: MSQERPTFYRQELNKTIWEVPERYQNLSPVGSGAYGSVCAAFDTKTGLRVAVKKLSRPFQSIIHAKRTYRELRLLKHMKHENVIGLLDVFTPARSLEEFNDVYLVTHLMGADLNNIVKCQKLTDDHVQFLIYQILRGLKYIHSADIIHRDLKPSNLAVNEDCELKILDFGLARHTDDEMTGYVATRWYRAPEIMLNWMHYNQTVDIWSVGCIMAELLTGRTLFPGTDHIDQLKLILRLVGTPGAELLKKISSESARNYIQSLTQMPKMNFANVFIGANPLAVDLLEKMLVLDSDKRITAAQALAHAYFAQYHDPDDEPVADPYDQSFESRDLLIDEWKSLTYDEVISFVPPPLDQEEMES

The target in experiment [1] is T1, human GST-p38 kinase alpha (Homo sapiens, UniProt Q16539).
T1 construct: The coding region of the human p38a cDNA was obtained by PCR-amplification from RNA isolated from the human monocyte cell line THP.1; made in house; host or cells: E. coli DH10B
The experiment is described as follows: p38 kinase in vitro assay, second format, phosphorylation of EGFRP with 33P-ATP. The format is biochemical. The note with it: Table 8, 10% DMSO; read-out: p38α Kinase Assay IC50. As for the experimental part: A second assay format was also employed that is based on p38 kinase alpha induced phosphorylation of EGFRP (epidermal growth factor receptor peptide, a 21 mer) in the presence of ^33P-ATP. Compounds were tested in 10 fold serial dilutions over the range of 100 μM to 0.001 μM in 10% DMSO. Each concentration of inhibitor was tested in triplicate. Compounds were evaluated in 50 μl reaction volumes in the presence of 25 mM Hepes pH 7.5, 10 mM magnesium acetate, 4% glycerol, 0.4% bovine serum albumin, 0.4 mM DTT, 50 μM unlabeled ATP, 25 μg EGFRP (200 μM), and 0.05 uCi gamma ^33P-ATP. Reactions were initiated by addition of 0.09 μg of activated, purified human GST-p38 kinase alpha. Activation was carried out using GST-MKK6 (5:1, p38: MKK6) for one hour at 30° C. in the presence of 50 μM ATP. Following incubation for 60 minutes at room temperature, the reaction was stopped by addition of 150 μl of AG 1×8 resin in 900 mM sodium formate buffer, pH 3.0 (1 volume resin to 2 volumes buffer). The mixture was mixed three times with pipetting and the resin was allowed to settle. A total of 50 μl of clarified solution head volume was transferred from the reaction wells to Microlite-2 plates. 150 μl of Microscint 40 was then added to each well of the Microlite plate, and the plate was sealed, mixed, and counted.

The target in the next experiment is T2, human p38 kinase alpha (Homo sapiens, UniProt Q16539).
T2 construct: The coding region of the human p38a cDNA was obtained by PCR-amplification from RNA isolated from the human monocyte cell line THP.1; GST (N); made in house; host or cells: E. coli DH10B
Briefly: p38 kinase in vitro assay, phosphorylation of biotinylated PHAS-I with gamma 32P-ATP. Type of experiment: biochemical. As for the experimental part: The ability of compounds to inhibit human p38 kinase alpha was evaluated using two in vitro assay methods. In the first method activated human p38 kinase alpha phosphorylates a biotinylated substrate, PHAS-I (phosphorylated heat and acid stable protein-insulin inducible), in the presence of gamma ^32P-ATP (^32P-ATP). PHAS-I was biotinylated prior to the assay and provides a means of capturing the substrate which is phosphorylated during the assay. p38 Kinase was activated by MKK6. Compounds were tested in 10 fold serial dilutions over the range of 100 μM to 0.001 μM using 1% DMSO. Each concentration of inhibitor was tested in triplicate.
All reactions were carried out in 96 well polypropylene plates. Each reaction well contained 25 mM HEPES pH 7.5, 10 mM magnesium acetate and 50 μM unlabeled ATP. […] The reaction proceeded either for one hour or overnight at 30° C.
Following incubation, 20 μl of reaction mixture was transferred to a high capacity streptavidin coated filter plate (SAM-streptavidin-matrix, Promega) prewetted with phosphate buffered saline. […] Filter plates were air dried and 20 μl of scintillant was added. The plates were sealed and counted.

For `CC1CN(c2[nH]nc(-c3ccc(Cl)cc3)c2-c2ccncc2)CC(C)N1` (centres unmarked) [Example A-342, 1-[5-(4-chlorophenyl)-4-(4-pyridinyl)-1H-pyrazol-3-yl]-3,5-dimethylpiperazine], in experiment [1], the 50% inhibitory concentration (IC50) was 12 nM.

Regarding `C[C@@H](NC(=O)c1cccc2ccccc12)c1[nH]nc(-c2ccc(F)cc2)c1-c1ccncc1` [Example B-0500], 260 nM corresponded to half-maximal inhibition at human p38 kinase alpha (IC50).

The term IC50 denotes the concentration that inhibits the measured activity by half.
